Test results as given in article PMC5865166, “MultiBacMam Bimolecular Fluorescence Complementation (BiFC) tool-kit identifies new small-molecule inhibitors of the CDK5-p25 protein-protein interaction (PPI)” (Scientific Reports, 2018).

By UniProt entry, the sequences of proteins in these tests, tags left out.
UniProt Q8NB16, whole entry: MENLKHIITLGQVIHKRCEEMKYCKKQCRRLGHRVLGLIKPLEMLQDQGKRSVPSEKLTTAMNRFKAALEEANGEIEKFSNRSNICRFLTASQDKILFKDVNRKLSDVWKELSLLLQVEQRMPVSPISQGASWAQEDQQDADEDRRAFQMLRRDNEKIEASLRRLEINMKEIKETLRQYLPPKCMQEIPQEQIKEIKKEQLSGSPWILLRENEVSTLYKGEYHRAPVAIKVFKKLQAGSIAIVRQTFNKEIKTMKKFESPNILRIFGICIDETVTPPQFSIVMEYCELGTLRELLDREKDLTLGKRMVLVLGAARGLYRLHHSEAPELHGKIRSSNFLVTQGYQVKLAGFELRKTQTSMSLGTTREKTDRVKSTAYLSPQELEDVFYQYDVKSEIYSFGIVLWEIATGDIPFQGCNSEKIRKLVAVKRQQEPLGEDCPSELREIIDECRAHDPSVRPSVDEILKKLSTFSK
UniProt Q9Y572, whole entry: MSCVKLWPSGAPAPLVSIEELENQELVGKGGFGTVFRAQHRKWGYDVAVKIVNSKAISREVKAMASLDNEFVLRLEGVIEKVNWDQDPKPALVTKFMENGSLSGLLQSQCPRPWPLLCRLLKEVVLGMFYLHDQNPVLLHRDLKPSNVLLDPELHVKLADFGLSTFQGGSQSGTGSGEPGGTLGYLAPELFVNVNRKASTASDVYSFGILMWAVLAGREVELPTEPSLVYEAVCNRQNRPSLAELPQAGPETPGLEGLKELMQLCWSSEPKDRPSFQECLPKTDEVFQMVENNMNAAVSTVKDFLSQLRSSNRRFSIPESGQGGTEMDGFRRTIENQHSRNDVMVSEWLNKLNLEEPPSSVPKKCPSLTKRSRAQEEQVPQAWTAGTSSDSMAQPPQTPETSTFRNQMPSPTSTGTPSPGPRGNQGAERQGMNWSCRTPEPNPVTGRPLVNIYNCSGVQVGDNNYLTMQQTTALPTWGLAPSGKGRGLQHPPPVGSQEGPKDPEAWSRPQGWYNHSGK

Columns and labels:
CDK5-p25 PPI = test: MultiBacMam BiFC assay of CDK5-p25 PPI in transduced U2OS cells (VN-CDK5(D144N)/VC-p25); conditions: read-out: IC50 (percentage of BiFC positive cells); 16 h treatment, dose-response
MLKL-RIPK3 PPI = MLKL-RIPK3 PPI (Homo sapiens, UniProt Q8NB16+Q9Y572); test: MLKL-RIPK3 BiFC counter assay in transduced U2OS cells (VN-MLKL/VC-RIPK3)
Tau dimerization = test: Tau BiFC counter assay in transduced U2OS cells (VN-TAU/VC-TAU)

IC50 (CDK5-p25 PPI): 1.39 µM
BiFC signal in MLKL-RIPK3 counter assay (MLKL-RIPK3 PPI; 10 μM): almost complete loss of BiFC signal
IC50 (MLKL-RIPK3 PPI; MLKL-RIPK3 BiFC counter assay): 5.84 µM
Structure (SMILES): CCC(C)(C)C(=O)N1Cc2c(Nc3cccc(OC)n3)n[nH]c2C1(C)C
BiFC signal in Tau counter assay (Tau dimerization; 10 μM): almost complete loss of BiFC signal
IC50 (Tau dimerization; Tau BiFC counter assay): 3.21 µM
